Measured values published in PubChem BioAssay AID588352 (The Scripps Research Institute Molecular Screening Center, 2011).
Only a part is listed here, and it is no random draw. The source made the active and inactive calls.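 Rule for the calls: active = inhibition above a per-campaign cutoff, the mean of all compounds plus 3 SD (cut at about 60% in these data); inactive = the rest.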

Sequences of proteins named here, by UniProt entry; tags and fusion partners are left off.
UniProt Q9Y6Q9, whole entry: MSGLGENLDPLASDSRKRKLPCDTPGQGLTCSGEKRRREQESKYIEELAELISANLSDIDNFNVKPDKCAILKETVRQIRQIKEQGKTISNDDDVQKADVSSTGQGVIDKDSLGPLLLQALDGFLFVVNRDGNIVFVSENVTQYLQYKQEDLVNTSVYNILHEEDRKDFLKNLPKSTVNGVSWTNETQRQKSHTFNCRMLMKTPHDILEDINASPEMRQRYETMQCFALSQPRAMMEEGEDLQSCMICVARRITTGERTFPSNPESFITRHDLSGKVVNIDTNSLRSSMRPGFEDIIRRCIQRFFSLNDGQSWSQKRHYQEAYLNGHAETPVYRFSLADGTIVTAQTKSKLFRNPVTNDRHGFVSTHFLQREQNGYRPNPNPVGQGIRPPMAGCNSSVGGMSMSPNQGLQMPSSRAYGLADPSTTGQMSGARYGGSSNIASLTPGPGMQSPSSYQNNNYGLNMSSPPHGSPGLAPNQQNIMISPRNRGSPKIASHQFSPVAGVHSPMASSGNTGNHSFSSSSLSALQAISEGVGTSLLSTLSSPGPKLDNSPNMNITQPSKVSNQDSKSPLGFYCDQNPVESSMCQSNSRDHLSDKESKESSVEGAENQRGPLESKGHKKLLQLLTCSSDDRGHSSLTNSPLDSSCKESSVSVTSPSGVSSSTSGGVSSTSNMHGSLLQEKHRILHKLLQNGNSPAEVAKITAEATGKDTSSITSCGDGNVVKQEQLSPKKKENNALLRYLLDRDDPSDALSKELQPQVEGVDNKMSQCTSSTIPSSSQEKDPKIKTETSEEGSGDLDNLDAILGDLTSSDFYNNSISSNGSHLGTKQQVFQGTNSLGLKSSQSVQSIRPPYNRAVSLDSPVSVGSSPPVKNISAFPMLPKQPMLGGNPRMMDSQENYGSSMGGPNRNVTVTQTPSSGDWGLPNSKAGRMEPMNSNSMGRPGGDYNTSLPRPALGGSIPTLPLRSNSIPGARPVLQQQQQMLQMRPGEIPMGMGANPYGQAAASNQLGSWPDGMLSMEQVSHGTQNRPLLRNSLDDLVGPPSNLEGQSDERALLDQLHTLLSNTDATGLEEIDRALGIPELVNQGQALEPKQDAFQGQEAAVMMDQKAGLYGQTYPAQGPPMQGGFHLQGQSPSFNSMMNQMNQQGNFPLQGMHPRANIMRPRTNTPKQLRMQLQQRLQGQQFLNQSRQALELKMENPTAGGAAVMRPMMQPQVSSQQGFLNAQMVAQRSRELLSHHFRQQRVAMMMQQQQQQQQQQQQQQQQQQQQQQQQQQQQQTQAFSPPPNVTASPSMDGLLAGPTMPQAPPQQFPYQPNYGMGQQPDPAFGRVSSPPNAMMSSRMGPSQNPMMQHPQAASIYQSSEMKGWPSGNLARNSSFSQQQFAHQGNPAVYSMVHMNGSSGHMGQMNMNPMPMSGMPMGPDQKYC

The compounds below were run against Nuclear receptor coactivator 3 (Homo sapiens) (UniProt Q9Y6Q9) (assay: NCOA3 GAL4-fusion reporter inhibition – cell-based, luminescence, primary screen (AID 588352;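 note: 0% = DMSO-treated cells and 100% = gossypol-treated cells at 36 µM; higher means less SRC3-driven luciferase light from the GAL4 reporter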)). Conditions: HEK293 GAL4-SRC3 luciferase reporter, at 3.6 µM, hits give high values.

Question: With Cc1ccc(C(=O)NCC2(N(C)C)CCCCC2)o1 as the compound, how does the inhibition read?
Answer: inactive: -9.86%

Question: For CCC(c1nnnn1C1CCCC1)N1CCC(n2c(=O)[nH]c3ccccc32)CC1 (stereo unspecified), which inhibition is on record?
Answer: inactive: 2.66%

Question: Which inhibition does the source give for COc1ccc(C(=O)NCC2(N3CCCCC3)CCCCC2)c(OC)c1OC here?
Answer: inactive: 7.38%

Question: For CC(C)(C)OC(=O)N1CCC(N(C(=O)c2ccccc2)c2ccc(F)cc2)CC1, which inhibition is on record?
Answer: inactive: -11%

Question: How did the inhibition turn out when COc1ccc(C(=O)NCC2(N3CCCCC3)CCCCC2)cc1 was run?
Answer: inactive: -1.16%

Question: For CCCCn1nnnc1C(c1cccs1)N1CCC(n2c(=O)[nH]c3ccccc32)CC1 (stereo unspecified), which inhibition is on record?
Answer: inactive: 23.9%

Question: How did the inhibition turn out when CCCCn1nnnc1C(CC)N1CCC(n2c(=O)[nH]c3ccccc32)CC1 (stereo unspecified) was run?
Answer: inactive: -23.4%

Question: How did the inhibition turn out when O=C(NCC1(N2CCCCC2)CCCCC1)c1cccs1 was run?
Answer: inactive: 15.4%

Question: How did the inhibition turn out when O=C(NCC1(N2CCCCC2)CCCCC1)c1ccc(=O)[nH]c1 was run?
Answer: inactive: -32.7%

Question: With Cc1cccc(NC2(C#N)CCN(Cc3ccccc3)CC2)c1 as the compound, how does the inhibition read?
Answer: inactive: -18.1%

Question: With CSc1ccccc1C(=O)NCC1(N2CCCCC2)CCCCC1 as the compound, how does the inhibition read?
Answer: inactive: 0.17%

Question: For Cc1cc(C)cc(N(C(=O)c2ccccc2)C2CCN(C(=O)OC(C)(C)C)CC2)c1, which inhibition is on record?
Answer: inactive: 20.1%

Question: How did the inhibition turn out when O=c1[nH]c2ccccc2n1C1CCN(C(c2ccccc2OC(F)(F)F)c2nnnn2C2CCCCC2)CC1 (stereo unspecified) was run?
Answer: inactive: 9.23%

Question: Which inhibition does the source give for O=C(NCC1(N2CCCCC2)CCCCC1)c1ccc(Cl)nc1 here?
Answer: inactive: -3.86%

Question: O=C(NCC1(N2CCOCC2)CCCCC1)c1cc2ccccc2o1 was tested. Which inhibition did it give?
Answer: inactive: 2.62%

Question: COc1ccc(Cl)cc1C(=O)NCC1(N2CCOCC2)CCCCC1 was tested. Which inhibition did it give?
Answer: inactive: -12.4%

Question: How did the inhibition turn out when O=C(OC1CN2CCC1CC2)C1c2ccccc2Oc2ccccc21 (stereo unspecified) was run?
Answer: inactive: 2.35%

Question: With O=c1[nH]c2ccccc2n1C1CCN(C(c2cc3ccccc3o2)c2nnnn2C2CCCCC2)CC1 (stereo unspecified) as the compound, how does the inhibition read?
Answer: inactive: -1.97%

Question: Which inhibition does the source give for O=C(NCC1(N2CCCCC2)CCCCC1)c1ccc(Cl)s1 here?
Answer: inactive: -1.52%

Question: With N#CC1(Nc2ccccc2)CCN(Cc2ccccc2)CC1 as the compound, how does the inhibition read?
Answer: inactive: -2.94%

Question: With CCCCn1nnnc1C(c1ccc(OC)cc1)N1CCC(n2c(=O)[nH]c3ccccc32)CC1 (stereo unspecified) as the compound, how does the inhibition read?
Answer: inactive: 5.21%

Question: How did the inhibition turn out when CCOC(=O)N1CCC(Nc2ccc(OC)cc2)CC1 was run?
Answer: inactive: 10.2%

Question: For O=C1CCN(Cc2ccccc2)CC1, which inhibition is on record?
Answer: inactive: -3.35%

Question: CC(C)(C)n1nnnc1C(c1ccccc1)N1CCC(n2c(=O)[nH]c3ccccc32)CC1 (stereo unspecified) was tested. Which inhibition did it give?
Answer: inactive: -6.75%

Question: With CCOc1ccc(C)cc1CN(CCCl)CCCl as the compound, how does the inhibition read?
Answer: inactive: 16.8%

Question: For COc1ccc(NC2CCN(CCc3ccccc3)CC2)c(OC)c1, which inhibition is on record?
Answer: inactive: 20.1%

Question: CCOC(=O)N1CCC(Nc2ccc(F)cc2)CC1 was tested. Which inhibition did it give?
Answer: inactive: 3.59%

Question: With O=C(NCC1(N2CCCCC2)CCCCC1)c1ccc(F)cc1 as the compound, how does the inhibition read?
Answer: inactive: 1.56%

Question: With CCCCn1nnnc1C(c1cc2ccccc2o1)N1CCC(n2c(=O)[nH]c3ccccc32)CC1 (stereo unspecified) as the compound, how does the inhibition read?
Answer: inactive: 17.8%

Question: Which inhibition does the source give for O=P1(N(CCCl)CCCl)SCCCS1 here?
Answer: inactive: -11.3%

Question: How did the inhibition turn out when CCCCOc1ccc(C(=O)NCC2(N3CCOCC3)CCCCC2)cc1 was run?
Answer: inactive: 14.6%

Question: For O=c1[nH]c2ccccc2n1C1CCN(C(c2ccccc2)c2nnnn2C2CCCCC2)CC1 (stereo unspecified), which inhibition is on record?
Answer: inactive: 5.38%

Question: COc1cc(C(=O)NCC2(N(C)C)CCCCC2)ccc1OC(F)F was tested. Which inhibition did it give?
Answer: inactive: 0.85%

Question: CCOC(=O)N1CCC(Nc2cccc(C)c2)CC1 was tested. Which inhibition did it give?
Answer: inactive: -2.23%

Question: How did the inhibition turn out when O=c1[nH]c2ccccc2n1C1CCN(C(c2cccc3ccccc23)c2nnnn2C2CCCC2)CC1 (stereo unspecified) was run?
Answer: inactive: 14.1%

Question: How did the inhibition turn out when CCC(c1nnnn1C1CCCCC1)N1CCC(n2c(=O)[nH]c3ccccc32)CC1 (stereo unspecified) was run?
Answer: inactive: 8.21%

Question: How did the inhibition turn out when CC(=O)N(c1ccccc1)C1CCNCC1 was run?
Answer: inactive: 4.78%

Question: How did the inhibition turn out when COc1cccc(C(c2nnnn2C2CCCCC2)N2CCC(n3c(=O)[nH]c4ccccc43)CC2)c1OC (stereo unspecified) was run?
Answer: inactive: 6.62%

Question: For O=c1[nH]c2ccccc2n1C1CCN(C(c2ccnc3ccccc23)c2nnnn2C2CCCCC2)CC1 (stereo unspecified), which inhibition is on record?
Answer: inactive: 0.29%

Question: With COc1cc(OC)cc(C(=O)NCC2(N3CCCCC3)CCCCC2)c1 as the compound, how does the inhibition read?
Answer: inactive: 10.7%

Question: With Fc1ccccc1NC1CCN(Cc2ccccc2)CC1 as the compound, how does the inhibition read?
Answer: inactive: -9.95%

Question: How did the inhibition turn out when Cc1ccc(C(=O)NCC2(N3CCCCC3)CCCCC2)o1 was run?
Answer: inactive: 11.9%

Question: Which inhibition does the source give for Cc1ccc(NC2(C#N)CCN(Cc3ccccc3)CC2)cc1 here?
Answer: inactive: -3.79%

Question: For CC(C)(C)n1nnnc1C(c1ccnc2ccccc12)N1CCC(n2c(=O)[nH]c3ccccc32)CC1 (stereo unspecified), which inhibition is on record?
Answer: inactive: 23.5%

Question: COc1ccc(C(c2nnnn2C2CCCCC2)N2CCC(n3c(=O)[nH]c4ccccc43)CC2)cc1 (stereo unspecified) was tested. Which inhibition did it give?
Answer: inactive: 1.75%

Question: Which inhibition does the source give for CCN1CCC(Nc2cccc(F)c2)CC1 here?
Answer: inactive: 7.21%

Question: Which inhibition does the source give for Cc1ccccc1NC1(C#N)CCN(Cc2ccccc2)CC1 here?
Answer: inactive: -7.03%

Question: With Cn1c(=O)[nH]cc(N(CCCl)CCCl)c1=O as the compound, how does the inhibition read?
Answer: inactive: -10.6%

Question: For CN(C)c1ccc(C(=O)NCC2(N3CCCCC3)CCCCC2)cc1, which inhibition is on record?
Answer: inactive: 2.3%

Question: With O=C(NCC1(N2CCCCC2)CCCCC1)c1ccco1 as the compound, how does the inhibition read?
Answer: inactive: 9.98%

Question: Which inhibition does the source give for CN1CCC(Nc2ccc(F)c(Cl)c2)CC1 here?
Answer: inactive: 5.14%

Question: How did the inhibition turn out when CCOc1ncccc1C(=O)NCC1(N2CCOCC2)CCCCC1 was run?
Answer: inactive: 1.16%

Question: How did the inhibition turn out when O=C(O)C1(Nc2ccccc2)CCN(Cc2ccccc2)CC1 was run?
Answer: inactive: -7.56%

Question: CC(C)(C)OC(=O)N1CCC(Nc2ccccc2)CC1 was tested. Which inhibition did it give?
Answer: inactive: 9.07%

Question: With CCCOc1ccc(C(=O)NCC2(N(C)C)CCCCC2)cc1 as the compound, how does the inhibition read?
Answer: inactive: 19.7%

Question: Which inhibition does the source give for O=c1[nH]c2ccccc2n1C1CCN(C(c2cc3ccccc3o2)c2nnnn2C2CCCC2)CC1 (stereo unspecified) here?
Answer: inactive: 3.6%

Question: COc1cc(OC)cc(C(=O)NCC2(N3CCOCC3)CCCCC2)c1 was tested. Which inhibition did it give?
Answer: inactive: -7.57%

Question: COc1cccc(C(c2nnnn2C2CCCC2)N2CCC(n3c(=O)[nH]c4ccccc43)CC2)c1OC (stereo unspecified) was tested. Which inhibition did it give?
Answer: inactive: 12.6%

Question: COc1cccc(C(=O)N(c2cc(C)cc(C)c2)C2CCN(C(=O)OC(C)(C)C)CC2)c1 was tested. Which inhibition did it give?
Answer: inactive: 14.2%

Question: CCC(CO)(C(=O)OC1CN2CCC1CC2)c1ccccc1 (stereo unspecified) was tested. Which inhibition did it give?
Answer: inactive: 15.4%

Question: How did the inhibition turn out when CN1CCC(Nc2ccc(Cl)cc2)CC1 was run?
Answer: inactive: -8.94%
